For one molecule, fraction released results are on record in patent publication US9107814B2, “Micelle composition of polymer and passenger drug” (Wisconsin Alumni Research Foundation, priority 2005, dated 2015).

The nature of this series: geldanamycin prodrug loading into and release from PEG-b-PCL micelles. The format is physicochemical. The settings on record: time 6 days; prodrug in micelles. How it is done:
These modified Hsp90 inhibitors may show sustained release from the carrier. Drugs were loaded into 0.5 mM PEG-b-PCL (5000:10000 Da) micelles to achieve a 25% wt loading (or 1.9 mg/ml solution). […] Drug diffusion was calculated as described in Forrest and Kwon, 2005 (Journal of Controlled Release).
PEG-PCL micelles are prepared by the drop-wise addition of geldanamycin prodrug and PEG-PCL dissolved in a miscible solvent, acetone, to vigorously stirred water, followed by removal of the solvent by N2 purge, and 0.2-μm filtration. Alternatively, the solution may be centrifuged to remove unincorporated and aggregated drug. The final solvent to water ratio is between about 0.1 and about 5, preferably between about 0.5 and about 4, and more preferably about 2. The micelle solution should be delivered at a rate of between about 2 s/drop and about 60 s/drop, preferably between about 5 s/drop and about 30 s/drop, and more preferably between about 10 s/drop and about 20 s/drop.

With `CCCCCCCCCCCCCCCC(=O)OCCNC1=C2CC(C)CC(OC)C(O)C(C)C=C(C)C(OC(N)=O)C(OC)C=CC=C(C)C(=O)NC(=CC1=O)C2=O` (stereo not shown) [17-aminoethyl-palmitate-17-demethoxygeldanamycin], the fraction released was determined as 0.7811.
